# Reference: ChEMBL document CHEMBL1125867 (J Med Chem, 1991)
# Experiments:
# [1] = Compound was evaluated for cell growth inhibition of human (WI-L2) leukemic cells.; assay type: functional, cell-based; conditions: WIL2
# [2] = test system: L1210; assay: Compound was evaluated for cell growth inhibition of murine (L1210) leukemic cells; assay type: functional, cell-based; conditions: Mus musculus
compound,measurement,setting,value
Cc1nc(N)c2nc(CN(C)c3ccc(C(=O)NC(CCC(=O)O)C(=O)O)cc3)cnc2n1 (configuration not stated),IC50,[1],330 nM
same,IC50,[2],220 nM
